For the assay, the target named is GLP-1R (Homo sapiens, UniProt P43220). In words: GLP-1R Activation - cAMP Assay. The conditions noted are these: read-out: GLP-1R Activation - Assay EC50; cAMP increase in CHO cells stably expressing GLP-1R; each compound run on one of the two cAMP assays (Assay 1 or Assay 2, not specified). How it is done: GLP-1R Activation—cAMP Assay 1
GLP-1R activation by compounds of the present disclosure were quantified by measuring cAMP increase in CHO cells stably expressing GLP-1R (MultiSpan product #C1267-1a). The cells were harvested and plated in growth medium (DMEM/F-12 (Corning product #10-090-CV) supplemented with 10% FBS (HyClone product #SH30071-03), penicillin/streptomycin (Corning product #30-002CI) and 10 μg/ml puromycin (Gibco product #A11138-03)) at 1,000 cells/well in a 384-well plate (Greiner product #781080). The cells were then incubated overnight at 37° C., 5% CO2. The next day, the medium was removed and the cells were washed with DPBS (Corning product #21-031-CM) before adding the assay medium (HBSS, Corning product #21-023-CV) with 20 mM Hepes (Gibco product #15630-080) and 0.1% BSA (Rockland Immunochemicals product #BSA-1000)). Following the medium change, the cells were incubated for 1 hour at 37° C., 5% CO2. The tested GLP-1 compound was added to the cells in a 10-point dose response followed by a 30 minutes incubation at 37° C., 5% CO2. cAMP concentration increase was then detected using Cisbio's cAMP Gs Dynamic Kit (product #62AM4PEC) according to the manufacturer's protocol. The response was plotted against the log of the agonist concentration and fitted to a sigmoidal equation to determine the EC50.

Chains of the proteins cited; added tags and fusions are not shown. Residues count along the entry.
UniProt P43220, 24-463 limits assumed: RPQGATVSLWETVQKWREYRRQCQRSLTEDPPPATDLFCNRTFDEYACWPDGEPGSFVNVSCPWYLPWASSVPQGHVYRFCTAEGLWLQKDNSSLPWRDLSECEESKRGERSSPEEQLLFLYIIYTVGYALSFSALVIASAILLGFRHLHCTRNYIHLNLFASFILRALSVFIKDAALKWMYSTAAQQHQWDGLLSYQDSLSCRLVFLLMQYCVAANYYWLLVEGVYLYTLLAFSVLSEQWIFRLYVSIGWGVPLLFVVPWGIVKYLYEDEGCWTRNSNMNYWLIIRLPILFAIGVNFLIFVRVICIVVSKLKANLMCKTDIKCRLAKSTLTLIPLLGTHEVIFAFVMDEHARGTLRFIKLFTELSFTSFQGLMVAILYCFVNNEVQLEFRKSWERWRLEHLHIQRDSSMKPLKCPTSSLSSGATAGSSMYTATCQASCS

The structures appear in SMILES notation.

Regarding `Cc1cc(Cc2nc3ccc(C(=O)O)cc3n2[C@@H]2COCC2(C)C)c(F)cc1-c1nc(OCc2ccc(C#N)cc2F)ccc1F`, the EC50 (in general, the concentration needed to bring the measured effect to its halfway point) came to 0.068 nM.

(Values after US12570642B2, “GLP-IR modulating compounds” (Gilead Sciences, Inc., priority 2021, dated 2026).)
